What is called IC50 is the concentration that inhibits the measured activity by half. By Solubility is commonly meant how much of the substance goes into solution per volume.

Amino acid sequences for entries named in this document (tags omitted).
UniProt P31750, whole entry: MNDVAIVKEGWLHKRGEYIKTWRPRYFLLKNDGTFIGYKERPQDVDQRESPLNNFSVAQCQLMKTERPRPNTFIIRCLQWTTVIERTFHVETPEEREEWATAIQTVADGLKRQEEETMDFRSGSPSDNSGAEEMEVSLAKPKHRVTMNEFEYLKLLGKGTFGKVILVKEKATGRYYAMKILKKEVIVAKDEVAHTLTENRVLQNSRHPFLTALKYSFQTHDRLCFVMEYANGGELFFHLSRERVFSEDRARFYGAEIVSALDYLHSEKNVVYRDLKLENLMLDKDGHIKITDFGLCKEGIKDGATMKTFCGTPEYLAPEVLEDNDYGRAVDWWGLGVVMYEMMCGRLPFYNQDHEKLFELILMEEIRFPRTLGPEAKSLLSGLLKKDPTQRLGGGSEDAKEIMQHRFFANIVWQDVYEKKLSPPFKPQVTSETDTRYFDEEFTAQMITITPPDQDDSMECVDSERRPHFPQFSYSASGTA

IC50 and Solubility data for one compound are collected here from US20120189670A1, “PHARMACEUTICAL COMPOSITIONS AND FORMULATIONS INCLUDING INHIBITORS OF THE PLECKSTRIN HOMOLOGY DOMAIN AND METHODS FOR USING SAME” (priority 2009, published 2012).

For data set [1], the target named is AKT (phospho-Ser^473 AKT) in NIH3T3 cells (Mus musculus, UniProt P31750). Nature of the data set: Inhibition of phospho-Ser473 AKT in NIH3T3 cells. It counts as cell-based. Particulars: read-out: AKT inhibition (IC50 μM) NIH3T3. The procedure:
[…]. […] AKT activity was measured by Western blotting using anti-phosphoSer437 AKT antibody. Downstream targets of AKT were detected also by Western blotting using specific anti-phospho antibodies and anti-actin was used as a loading control. Compounds 331 and 335 appear to inhibit both AKT phosphorylation and GSK3 phosphorylation downstream.

Data set [2] is described as follows: Solubility (Table 11). The class given is physicochemical.

For `CC1=NN(C(=O)c2ccc(Cl)cc2)C(O)C1/N=N/c1ccc(S(=O)(=O)Nc2ncccn2)cc1` (centres unmarked), the IC50 in data set [1] worked out at 3 µM. The Solubility in data set [2] was less than 0.1 µM.
